Consider one molecule from paper PMC7666139, “HACS1 signaling adaptor protein recognizes a motif in the paired immunoglobulin receptor B cytoplasmic domain” (Communications Biology, 2020).

Assay [1] addresses T1, 6xHis/Flag-tagged human SHP2 N-SH2 domain (human, UniProt Q06124 1-107).
T1 construct: human SHP2 phosphatase, N-SH2 domain, aa; 1-107; Gene synthesized; also called SHP2 SH2-N; SHP2 SH2(N) domain; source: E. coli, purified (Nickel-NTA, gel filtration)
T1 sequence (looked up): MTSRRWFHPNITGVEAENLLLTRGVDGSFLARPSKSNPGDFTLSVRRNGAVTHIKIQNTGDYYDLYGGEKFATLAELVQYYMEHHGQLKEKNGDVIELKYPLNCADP
As to the kind of experiment: SPR; biotinylated phosphopeptide on a streptavidin gold sensor chip (OpenSPR); analyte 20 µM to 0.1 µM in 10 mM Tris-HCl, 100 mM NaCl, pH 7.4, 0.1% bovine serum albumin, 0.005% Tween-20, 0.05% NaN3; 40 µL/min; 1:1 interaction model. Conditions: both partners purified. Background: SPR reads the build-up and loss of mass on a sensor chip optically.

Assay [2] has as its target T2, 6xHis-tagged HACS1 SH3 domain (human, UniProt Q9NSI8 163-224).
T2 construct: human HACS1 SH3 domain, codon-optimized synthetic gene; Gene synthesized, in a pD441NH expression vector (ATUM); 15N-labelled in the NMR experiments; Minimal folded SH3 domain is 168-222 by the NMR structure; also called HACS SH3 domain; 6xHis-tagged SH3 domain; source: E. coli, purified (Nickel-NTA, gel filtration)
The assay is described as above. The conditions noted are these: both partners purified.

B1: biotinylated murine PIRB derived phosphopeptide (peptide)
peptide: GGQDVTYAQLCSRTLRQGAAAS
modifications: phosphotyrosine ({pY}, residue 7 of the printed peptide); biotin (position not given)
notes: The leading GG may be a spacer and not part of PIRB; also called murine PIRB phospho-ITIM3 peptide; source: synthetic peptide (Genscript)
For the molecule B1, in assay [1], the dissociation constant Kd amounted to 7.4 µM, the koff amounted to 0.05 s⁻¹ and the kon amounted to 6800 M⁻¹ s⁻¹. For the same molecule, in assay [2], the koff was found to be 0.037 s⁻¹ and the kon turned out to be 2400 M⁻¹ s⁻¹.

A word on the Kd: it is the constant that tells how readily two partners part at equilibrium. What is called koff is a measure of how fast the partners let go of each other. A higher koff goes with a short-lived complex. As usually defined, the kon is a measure of how fast the partners come together.
